Results reported in patent US20140100156A1 (SANOFI, priority 2012, published 2014).

Amino acid sequences for entries named in this document (tags omitted). Residues count along the entry.
UniProt P43220, 24-463: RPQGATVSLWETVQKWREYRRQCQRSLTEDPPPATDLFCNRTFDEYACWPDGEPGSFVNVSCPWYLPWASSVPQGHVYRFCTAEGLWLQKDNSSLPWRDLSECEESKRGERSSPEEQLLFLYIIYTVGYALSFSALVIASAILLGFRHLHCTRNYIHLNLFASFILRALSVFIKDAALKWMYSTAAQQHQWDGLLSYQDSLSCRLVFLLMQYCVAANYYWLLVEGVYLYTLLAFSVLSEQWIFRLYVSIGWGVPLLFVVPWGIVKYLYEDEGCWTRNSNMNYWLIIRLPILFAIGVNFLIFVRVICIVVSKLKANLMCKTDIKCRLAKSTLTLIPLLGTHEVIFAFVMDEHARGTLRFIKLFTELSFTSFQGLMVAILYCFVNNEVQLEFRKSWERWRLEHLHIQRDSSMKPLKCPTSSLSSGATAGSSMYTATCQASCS
UniProt P47871, 26-477: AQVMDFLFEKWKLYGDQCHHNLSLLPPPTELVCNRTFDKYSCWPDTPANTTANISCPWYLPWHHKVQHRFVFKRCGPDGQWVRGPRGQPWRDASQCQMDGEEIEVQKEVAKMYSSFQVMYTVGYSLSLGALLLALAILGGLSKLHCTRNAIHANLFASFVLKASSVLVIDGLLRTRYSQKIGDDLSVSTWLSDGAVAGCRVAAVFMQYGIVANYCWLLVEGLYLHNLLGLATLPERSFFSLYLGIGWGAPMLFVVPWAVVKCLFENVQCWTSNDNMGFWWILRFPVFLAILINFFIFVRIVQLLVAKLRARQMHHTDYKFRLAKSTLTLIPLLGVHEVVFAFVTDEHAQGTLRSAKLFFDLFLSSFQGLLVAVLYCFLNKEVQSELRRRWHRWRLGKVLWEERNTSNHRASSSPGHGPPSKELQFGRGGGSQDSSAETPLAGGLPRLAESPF

How the values were obtained:
human GLP-1 receptor = target: T1, human GLP-1 receptor (Homo sapiens, UniProt P43220); assay: cAMP response (HTRF) of HEK-293 cells stably expressing human GLP-1 receptor; format: cell-based; details: Table 5; cAMP, HEK-293; read-out: EC50 hGLP-1R
T1 construct: expressed in transfected cells; host or cells: HEK-293

human glucagon receptor = target: T2, human glucagon receptor (Homo sapiens, UniProt P47871); assay: cAMP response (HTRF) of HEK-293 cells stably expressing human glucagon receptor; format: cell-based; details: Table 5; cAMP, HEK-293; read-out: EC50 hGlucagon-R
T2 construct: expressed in transfected cells; host or cells: HEK-293

Compound: CCCCCCCCCCCCCCCC(=O)N[C@@H](CCC(=O)NCCCC[C@H](NC(=O)[C@H](CCC(N)=O)NC(=O)[C@H](CCCCN)NC(=O)[C@H](CO)NC(=O)[C@H](CC(C)C)NC(=O)[C@H](CC(=O)O)NC(=O)[C@H](CO)NC(=O)[C@@H](NC(=O)[C@H](Cc1ccccc1)NC(=O)[C@@H](NC(=O)CNC(=O)[C@H](CCC(N)=O)NC(=O)C(C)(C)NC(=O)[C@@H](N)Cc1c[nH]cn1)[C@@H](C)O)[C@@H](C)O)C(=O)N[C@@H](CC(=O)O)C(=O)N[C@@H](CO)C(=O)N[C@@H](CCCNC(=N)N)C(=O)N[C@@H](CCCNC(=N)N)C(=O)N[C@@H](C)C(=O)N[C@@H](CCC(N)=O)C(=O)N[C@@H](CC(=O)O)C(=O)N[C@@H](Cc1ccccc1)C(=O)N[C@H](C(=O)N[C@@H](CCC(=O)O)C(=O)N[C@@H](Cc1c[nH]c2ccccc12)C(=O)N[C@@H](CC(C)C)C(=O)N[C@@H](CCCCN)C(=O)N[C@@H](CC(N)=O)C(=O)NCC(=O)NCC(=O)N1CCC[C@H]1C(=O)N[C@@H](CO)C(=O)N[C@@H](CO)C(=O)NCC(=O)N[C@@H](C)C(=O)N1CCC[C@H]1C(=O)N1CCC[C@H]1C(=O)N1CCC[C@H]1C(=O)N[C@@H](CO)C(N)=O)[C@@H](C)CC)C(=O)O [compound 115]
- EC50 (human GLP-1 receptor): 0.0024 nM
- EC50 (human glucagon receptor): 1.9 pM

Compound: CCCCCCCCCCCCCCCC(=O)N[C@@H](CCC(=O)NCCCC[C@H](NC(=O)[C@H](CCC(N)=O)NC(=O)[C@H](CCCCN)NC(=O)[C@H](CO)NC(=O)[C@H](CC(C)C)NC(=O)[C@H](CC(=O)O)NC(=O)[C@H](CO)NC(=O)[C@@H](NC(=O)[C@H](Cc1ccccc1)NC(=O)[C@@H](NC(=O)CNC(=O)[C@H](CCC(N)=O)NC(=O)[C@@H](CO)NC(=O)[C@@H](N)Cc1c[nH]cn1)[C@@H](C)O)[C@@H](C)O)C(=O)N[C@@H](CCC(=O)O)C(=O)N[C@@H](CO)C(=O)N[C@@H](CCCNC(=N)N)C(=O)N[C@@H](CCCNC(=N)N)C(=O)N[C@@H](C)C(=O)N[C@@H](CCC(N)=O)C(=O)N[C@@H](CC(=O)O)C(=O)N[C@@H](Cc1ccccc1)C(=O)N[C@H](C(=O)N[C@@H](CCC(=O)O)C(=O)N[C@@H](Cc1c[nH]c2ccccc12)C(=O)N[C@@H](CC(C)C)C(=O)N[C@@H](CCCCN)C(=O)N[C@@H](CC(N)=O)C(=O)NCC(=O)NCC(=O)N1CCC[C@H]1C(=O)N[C@@H](CO)C(=O)N[C@@H](CO)C(=O)NCC(=O)N[C@@H](C)C(=O)N1CCC[C@H]1C(=O)N1CCC[C@H]1C(=O)N1CCC[C@H]1C(=O)N[C@@H](CO)C(N)=O)[C@@H](C)CC)C(=O)O [compound 116]
- EC50 (human GLP-1 receptor): 0.006 nM
- EC50 (human glucagon receptor): 3.6 pM

Compound: CCCCCCCCCCCCCCCC(=O)N[C@@H](CCC(=O)NCCCC[C@H](NC(=O)[C@H](CCC(N)=O)NC(=O)[C@H](CCCCN)NC(=O)[C@H](CO)NC(=O)[C@H](CC(C)C)NC(=O)[C@H](CC(=O)O)NC(=O)[C@H](CO)NC(=O)[C@@H](NC(=O)[C@H](Cc1ccccc1)NC(=O)[C@@H](NC(=O)CNC(=O)[C@H](CCC(N)=O)NC(=O)[C@@H](CO)NC(=O)[C@@H](N)Cc1c[nH]cn1)[C@@H](C)O)[C@@H](C)O)C(=O)N[C@@H](CC(=O)O)C(=O)N[C@@H](CO)C(=O)N[C@@H](CCCNC(=N)N)C(=O)N[C@@H](CCCNC(=N)N)C(=O)N[C@@H](C)C(=O)NC(C)(C)C(=O)N[C@@H](CC(=O)O)C(=O)N[C@@H](Cc1ccccc1)C(=O)N[C@H](C(=O)N[C@@H](CCC(=O)O)C(=O)N[C@@H](Cc1c[nH]c2ccccc12)C(=O)N[C@@H](CC(C)C)C(=O)N[C@@H](CCCCN)C(=O)N[C@@H](CC(N)=O)C(=O)NCC(=O)NCC(=O)N1CCC[C@H]1C(=O)N[C@@H](CO)C(=O)N[C@@H](CO)C(=O)NCC(=O)N[C@@H](C)C(=O)N1CCC[C@H]1C(=O)N1CCC[C@H]1C(=O)N1CCC[C@H]1C(=O)N[C@@H](CO)C(N)=O)[C@@H](C)CC)C(=O)O [compound 118]
- EC50 (human GLP-1 receptor): 0.0153 nM
- EC50 (human glucagon receptor): 4.3 pM

Compound: CCCCCCCCCCCCCCCC(=O)NCCCC[C@H](NC(=O)[C@H](CCC(N)=O)NC(=O)[C@H](CCCCN)NC(=O)[C@H](CO)NC(=O)[C@H](CC(C)C)NC(=O)[C@H](CC(=O)O)NC(=O)[C@H](CO)NC(=O)[C@@H](NC(=O)[C@H](Cc1ccccc1)NC(=O)[C@@H](NC(=O)CNC(=O)[C@H](CCC(N)=O)NC(=O)[C@@H](CO)NC(=O)[C@@H](N)Cc1c[nH]cn1)[C@@H](C)O)[C@@H](C)O)C(=O)N[C@@H](CCC(=O)O)C(=O)N[C@@H](CO)C(=O)N[C@@H](CCCNC(=N)N)C(=O)N[C@@H](CCCNC(=N)N)C(=O)N[C@@H](C)C(=O)NC(C)(C)C(=O)N[C@@H](CC(=O)O)C(=O)N[C@@H](Cc1ccccc1)C(=O)N[C@H](C(=O)N[C@@H](CCC(=O)O)C(=O)N[C@@H](Cc1c[nH]c2ccccc12)C(=O)N[C@@H](CC(C)C)C(=O)N[C@@H](CCCCN)C(=O)N[C@@H](CC(N)=O)C(=O)NCC(=O)NCC(=O)N1CCC[C@H]1C(=O)N[C@@H](CO)C(=O)N[C@@H](CO)C(=O)NCC(=O)N[C@@H](C)C(=O)N1CCC[C@H]1C(=O)N1CCC[C@H]1C(=O)N1CCC[C@H]1C(=O)N[C@@H](CO)C(N)=O)[C@@H](C)CC [compound 119]
- EC50 (human GLP-1 receptor): 0.0308 nM
- EC50 (human glucagon receptor): 41.2 pM

Compound: CCCCCCCCCCCCCCCC(=O)NCCCC[C@H](NC(=O)[C@H](CCC(N)=O)NC(=O)[C@H](CCCCN)NC(=O)[C@H](CO)NC(=O)[C@H](CC(C)C)NC(=O)[C@H](CC(=O)O)NC(=O)[C@H](CO)NC(=O)[C@@H](NC(=O)[C@H](Cc1ccccc1)NC(=O)[C@@H](NC(=O)CNC(=O)[C@H](CCC(N)=O)NC(=O)[C@@H](CO)NC(=O)[C@@H](N)Cc1c[nH]cn1)[C@@H](C)O)[C@@H](C)O)C(=O)N[C@@H](CCC(=O)O)C(=O)N[C@@H](CO)C(=O)N[C@@H](CCCNC(=N)N)C(=O)N[C@@H](C)C(=O)N[C@@H](C)C(=O)NC(C)(C)C(=O)N[C@@H](CC(C)C)C(=O)N[C@@H](Cc1ccccc1)C(=O)N[C@H](C(=O)N[C@@H](CCC(=O)O)C(=O)N[C@@H](Cc1c[nH]c2ccccc12)C(=O)N[C@@H](CC(C)C)C(=O)N[C@@H](CCCCN)C(=O)N[C@@H](CC(N)=O)C(=O)NCC(=O)NCC(=O)N1CCC[C@H]1C(=O)N[C@@H](CO)C(=O)N[C@@H](CO)C(=O)NCC(=O)N[C@@H](C)C(=O)N1CCC[C@H]1C(=O)N1CCC[C@H]1C(=O)N1CCC[C@H]1C(=O)N[C@@H](CO)C(N)=O)[C@@H](C)CC [compound 122]
- EC50 (human GLP-1 receptor): 0.0249 nM
- EC50 (human glucagon receptor): 156 pM

Compound: CCCCCCCCCCCCCCCC(=O)N[C@@H](CCC(=O)NCCCC[C@H](NC(=O)[C@H](CCC(N)=O)NC(=O)[C@H](CCCCN)NC(=O)[C@H](CO)NC(=O)[C@H](CC(C)C)NC(=O)[C@H](CC(=O)O)NC(=O)[C@H](CO)NC(=O)[C@@H](NC(=O)[C@H](Cc1ccccc1)NC(=O)[C@@H](NC(=O)CNC(=O)[C@H](CCC(N)=O)NC(=O)[C@@H](CO)NC(=O)[C@@H](N)Cc1c[nH]cn1)[C@@H](C)O)[C@@H](C)O)C(=O)N[C@@H](CC(=O)O)C(=O)N[C@@H](CO)C(=O)N[C@@H](CCC(N)=O)C(=O)N[C@@H](C)C(=O)N[C@@H](C)C(=O)N[C@@H](CCC(N)=O)C(=O)N[C@@H](CC(=O)O)C(=O)N[C@@H](Cc1ccccc1)C(=O)N[C@H](C(=O)N[C@@H](CCC(=O)O)C(=O)N[C@@H](Cc1c[nH]c2ccccc12)C(=O)N[C@@H](CC(C)C)C(=O)N[C@@H](CCCCN)C(=O)N[C@@H](CCCNC(=N)N)C(=O)NCC(=O)NCC(=O)N1CCC[C@H]1C(=O)N[C@@H](CO)C(=O)N[C@@H](CO)C(=O)NCC(=O)N[C@@H](C)C(=O)N1CCC[C@H]1C(=O)N1CCC[C@H]1C(=O)N1CCC[C@H]1C(=O)N[C@@H](CO)C(N)=O)[C@@H](C)CC)C(=O)O [compound 123]
- EC50 (human GLP-1 receptor): 0.0026 nM
- EC50 (human glucagon receptor): 9.7 pM

Compound: CCCCCCCCCCCCCCCC(=O)N[C@@H](CCC(=O)NCCCC[C@H](NC(=O)[C@H](CCC(N)=O)NC(=O)[C@H](CCCCN)NC(=O)[C@H](CO)NC(=O)[C@H](CC(C)C)NC(=O)[C@H](CC(=O)O)NC(=O)[C@H](CO)NC(=O)[C@@H](NC(=O)[C@H](Cc1ccccc1)NC(=O)[C@@H](NC(=O)CNC(=O)[C@H](CCC(N)=O)NC(=O)[C@@H](CO)NC(=O)[C@@H](N)Cc1c[nH]cn1)[C@@H](C)O)[C@@H](C)O)C(=O)N[C@@H](CC(=O)O)C(=O)N[C@@H](CO)C(=O)N[C@@H](CCC(N)=O)C(=O)N[C@@H](C)C(=O)N[C@@H](C)C(=O)N[C@@H](CCC(N)=O)C(=O)N[C@@H](CC(=O)O)C(=O)N[C@@H](Cc1ccccc1)C(=O)N[C@H](C(=O)N[C@@H](CCC(=O)O)C(=O)N[C@@H](Cc1c[nH]c2ccccc12)C(=O)N[C@@H](CC(C)C)C(=O)N[C@@H](CCCCN)C(=O)N[C@@H](CCCNC(=N)N)C(=O)N[C@@H](C)C(=O)NCC(=O)N1CCC[C@H]1C(=O)N[C@@H](CO)C(=O)N[C@@H](CO)C(=O)NCC(=O)N[C@@H](C)C(=O)N1CCC[C@H]1C(=O)N1CCC[C@H]1C(=O)N1CCC[C@H]1C(=O)N[C@@H](CO)C(N)=O)[C@@H](C)CC)C(=O)O [compound 124]
- EC50 (human GLP-1 receptor): 0.003 nM
- EC50 (human glucagon receptor): 8.4 pM

Compound: CCCCCCCCCCCCCCCC(=O)N[C@@H](CCC(=O)NCCCC[C@H](NC(=O)[C@H](CCC(N)=O)NC(=O)[C@H](CCCCN)NC(=O)[C@H](CO)NC(=O)[C@H](CC(C)C)NC(=O)[C@H](CC(=O)O)NC(=O)[C@H](CO)NC(=O)[C@@H](NC(=O)[C@H](Cc1ccccc1)NC(=O)[C@@H](NC(=O)CNC(=O)[C@H](CCC(N)=O)NC(=O)[C@@H](CO)NC(=O)[C@@H](N)Cc1c[nH]cn1)[C@@H](C)O)[C@@H](C)O)C(=O)N[C@@H](CC(=O)O)C(=O)N[C@@H](CO)C(=O)N[C@@H](CCCNC(=N)N)C(=O)N[C@@H](CCCNC(=N)N)C(=O)N[C@@H](C)C(=O)N[C@@H](CCC(N)=O)C(=O)N[C@@H](CC(=O)O)C(=O)N[C@@H](Cc1ccccc1)C(=O)N[C@H](C(=O)N[C@@H](CCC(=O)O)C(=O)N[C@@H](Cc1c[nH]c2ccccc12)C(=O)N[C@@H](CC(C)C)C(=O)N[C@@H](CCCCN)C(=O)N[C@@H](CCCNC(=N)N)C(=O)NCC(=O)NCC(=O)N1CCC[C@H]1C(=O)N[C@@H](CO)C(=O)N[C@@H](CO)C(=O)NCC(=O)N[C@@H](C)C(=O)N1CCC[C@H]1C(=O)N1CCC[C@H]1C(=O)N1CCC[C@H]1C(=O)N[C@@H](CO)C(N)=O)[C@@H](C)CC)C(=O)O [compound 125]
- EC50 (human GLP-1 receptor): 0.0314 nM
- EC50 (human glucagon receptor): 6.9 pM
